Measurements as given in patent US8703750B2, “Mixtures and methods for the induction of resistance in plants” (priority 2004, dated 2014).

System: cultivar Merlot vines
Assay: Undesired effects (necrosis or leaf decolouring) on vines in the Plasmopara viticola greenhouse test
Settings: in vivo

Substance	Undesired Effects
FeNH4SO4	0
silicic acid	0
